The structures appear in SMILES notation. This is a selection; strong and weak results do not stand in their true shares. Calls of active or inactive are those of the source. Calls come from the whole dose curve; as a rule, active = well fitted activation curve with a large enough effect; inconclusive = small, poorly fitted or top-dose-only effect; inactive = no such curve, though single readings can be large or run the other way.

By UniProt entry, the sequences of proteins in these tests, tags left out.
UniProt Q8WZA2, whole entry: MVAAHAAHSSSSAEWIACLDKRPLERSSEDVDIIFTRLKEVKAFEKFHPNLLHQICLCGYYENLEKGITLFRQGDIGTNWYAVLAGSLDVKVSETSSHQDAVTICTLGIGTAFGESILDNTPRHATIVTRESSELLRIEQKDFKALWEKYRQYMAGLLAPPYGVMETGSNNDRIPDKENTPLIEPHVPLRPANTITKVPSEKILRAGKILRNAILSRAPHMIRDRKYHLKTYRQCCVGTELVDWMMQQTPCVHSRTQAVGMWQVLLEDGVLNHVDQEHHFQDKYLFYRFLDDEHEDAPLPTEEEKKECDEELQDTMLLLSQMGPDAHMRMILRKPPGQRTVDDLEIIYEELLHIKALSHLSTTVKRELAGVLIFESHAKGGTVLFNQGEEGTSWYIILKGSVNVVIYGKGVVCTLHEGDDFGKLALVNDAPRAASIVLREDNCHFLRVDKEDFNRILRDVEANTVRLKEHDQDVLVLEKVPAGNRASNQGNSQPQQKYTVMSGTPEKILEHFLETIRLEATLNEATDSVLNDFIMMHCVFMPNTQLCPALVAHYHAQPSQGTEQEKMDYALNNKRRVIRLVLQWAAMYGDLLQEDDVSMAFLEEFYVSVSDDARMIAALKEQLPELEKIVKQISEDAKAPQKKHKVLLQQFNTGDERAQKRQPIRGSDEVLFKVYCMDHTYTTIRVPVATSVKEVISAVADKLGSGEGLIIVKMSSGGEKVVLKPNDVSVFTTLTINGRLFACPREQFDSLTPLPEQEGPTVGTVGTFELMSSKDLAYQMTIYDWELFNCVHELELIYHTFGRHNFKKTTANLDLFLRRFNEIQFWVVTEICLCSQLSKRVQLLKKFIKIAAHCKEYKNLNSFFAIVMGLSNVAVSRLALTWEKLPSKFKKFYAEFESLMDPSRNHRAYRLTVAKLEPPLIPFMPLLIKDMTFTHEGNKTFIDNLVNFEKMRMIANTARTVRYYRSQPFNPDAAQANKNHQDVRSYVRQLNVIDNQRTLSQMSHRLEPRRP

The results in this text go back to PubChem BioAssay AID720711 (National Center for Advancing Translational Sciences (NCATS), 2013).

This test concerns the target Rap guanine nucleotide exchange factor 4 (Homo sapiens) (UniProt Q8WZA2). Put plainly: qHTS for Agonist of cAMP-regulated guanine nucleotide exchange factor 4 (EPAC2): primary screen. Note: nearly all actives have a fitted effect of over 50% in size. As to conditions: biochemical qHTS, 100% = 6.5 mM cAMP response; at 154 µM (top of the series) unless noted. The text has this:
In multi-cellular eukaryotic organisms, the effects of cAMP are transduced by two ubiquitously-expressed intracellular cAMP receptors, the classic protein kinase A/cAMP-dependent protein kinase (PKA/cAPK) and the more recently discovered exchange protein directly activated by cAMP/cAMP-regulated guanine nucleotide exchange factor (EPAC/cAMP-GEF). Both PKA and EPAC are ubiquitously expressed in all tissues, and an increase in intracellular cAMP levels will lead to the activation of both PKA and EPAC. Therefore, careful dissections of the individual role and relative contribution of EPAC and PKA within the overall cAMP signaling in various model systems are critical for further elucidating the mechanism of cAMP signaling. To date no EPAC-specific antagonists and agonist, as well as isoform-specific agonists have been reported, and developing EPAC-specific pharmacological probes to determine the physiological functions that EPAC play in the overall cAMP-mediated signaling remains a major challenge within the research field. Furthermore, identified regulators of EPAC may lead to new mechanism-based therapeutic strategies specifically targeting the EPAC / cAMP-signaling components as EPAC has been implicated to play important roles in major human pathological conditions such as diabetes, heart disease, and cancer.
This qHTS will be used to screen the Molecular Libraries Small Molecule Repository (MLSMR) as a concentration-titration series using the NCGC unique quantitative screening (qHTS) platform to find activators for EPAC2. In addition, this assay will also be used as a counterscreen for the EPAC1 qHTS. This fluorescent based assay is developed and validated for EPAC2 that measures exchange using EPAC effector Rap1 complex with BODIPY-GDP, a GDP analog with a tethered fluorophores. Activators are identified by monitoring the change in fluorescence signal as the exchanged free BODIPY-GDP has a reduced fluorescence compared to Rap1-bound BODIPY-GDP. […] in signal (activation) is the desired outcome for the EPAC2 agonist while no activity in this assay is desired for the EPAC1 agonist counterscreen.
[1] de Rooij, J., Zwartkruis, F. J., Verheijen, M. H., Cool, R. H., Nijman, S. M., Wittinghofer, A., and Bos, J.L. (1998) Nature 396, 474-477
[2] Kawasaki, H., Springett, G. M., Mochizuki, N., Toki, S., Nakaya, M., Matsuda, M., Housman, D. E., and Graybiel, A. M. (1998) Science 282, 2275-2279
NIH Chemical Genomics Center [NCGC]
NIH Molecular Libraries Probe Centers Network [MLPCN]
Assay Submitter (PI): Xiaodong Cheng, The University of Texas, Medical Branch
Briefly, three uL of reagents (100 nM EPAC2, 250 nM RAP1B-BODIPY-GDP, 50 uM GDP) were dispensed into a 1536-well Greiner black solid-bottom medium binding assay plate. Controls and test compounds (23 nL) were transferred to the plate via a Kalypsys pin tool equipped with a 1536-pin array. The plates were centrifuged at 1,000 rpm for 15 seconds followed by 5 minute incubation at room temperature. The assay plates were read at 5 minute intervals for 30 minutes in the ViewLux plate reader using 480nm excitation and 540nm emission filters. The results were normalized to the agonist positive control of 6.5 mM cAMP.
For `COc1ccccc1OP(C)(=O)Nc1ccc(Br)cc1` (stereo unspecified), the activation was inactive: -3.45%.

Regarding `COc1ccc(OP(C)(=O)Nc2ccccn2)cc1` (stereo unspecified), the activation is inactive: 6.94%.

For the compound `CN(C)CCOC(=O)C(O)(c1ccccc1)C1CCCC1` (stereo unspecified), the activation was inactive: 4.8%.

As to `Cc1c(NP(C)(=O)Oc2ccc(C(C)C)cc2)c(=O)n(-c2ccccc2)n1C` (stereo unspecified), the activation was inactive: 0.527%.

Take `O=[N+]([O-])c1cc([N+](=O)[O-])c(Nc2ccccn2)c([N+](=O)[O-])c1`: the activation was inactive: -2.09%.

On to `CP(=O)(Nc1ccccn1)Oc1ccccc1` (stereo unspecified), for which the activation is inactive: 0.921%.

Consider `COc1ccccc1OP(C)(=O)Nc1ccc(C)cc1C` (stereo unspecified), for which the activation is inactive: 3.26%.

As for `CCc1ccc(OP(C)(=O)O)cc1`, the activation was inactive: -84.9% [at 15.6 µM].

Take `Cc1cc(C)cc(OP(C)(=O)Nc2cccc(C(F)(F)F)c2)c1` (stereo unspecified): the activation is inactive: 1.46%.

For the compound `COc1ccccc1OP(C)(=O)Nc1ccc(C)c(C)c1` (stereo unspecified), the activation was inactive: 26.6%.

On to `COc1ccc(OP(C)(=O)Nc2ccccc2Br)cc1` (stereo unspecified), for which the activation was inactive: -1.96%.

Take `CCCCCCCCCCCCCCCC1C[N+](C)(C)CCOP(C)(=O)O1` (stereo unspecified): the activation is inactive: 2.35%.

`CP(=O)(Nc1ccc(Cl)cc1Cl)Oc1ccccc1` (stereo unspecified): the activation is inactive: -0.325%.

For the compound `CP(=O)(OCCOc1ccccc1)OCCOc1ccccc1`, the activation is inactive: 7.38%.

As for `Nc1ccc2c(ccc3cccnc32)n1.O=[N+]([O-])c1cc([N+](=O)[O-])c(O)c([N+](=O)[O-])c1`, the activation is inactive: 1.57%.

In the case of `CCOC(=O)c1ccc(NP(C)(=O)Oc2ccc(Cl)cc2)cc1` (stereo unspecified), the activation was inactive: -8.03%.

In the case of `CP(=O)(OC12CC3CC(CC(C3)C1)C2)OC12CC3CC(CC(C3)C1)C2`, the activation was inactive: -0.323%.

Regarding `CCN(CC)CC(O)COC(=O)C(O)(c1ccccc1)C1CCCCC1` (stereo unspecified), the activation was inactive: 0.0695%.

In the case of `COc1ccc(OP(C)(=O)Nc2ccc(Br)cc2)cc1` (stereo unspecified), the activation is inactive: -6.23%.

Take `COc1ccccc1OP(C)(=O)Nc1c(C)n(C)n(-c2ccccc2)c1=O` (stereo unspecified): the activation was inactive: 3.56%.

Turning to `O=C(OCCCN1CCCC1)C(O)(c1ccccc1)C1CCCCC1` (stereo unspecified), the activation is inactive: 3.24%.

As for `CP(=O)(Oc1ccccc1)N1CCOC1=O` (stereo unspecified), the activation is inactive: -2.49%.

Consider `CCc1ccc(OP(C)(=O)Nc2cccnc2)cc1` (stereo unspecified), for which the activation is inactive: -0.811%.

`COc1ccccc1OP(C)(=O)Nc1ccccc1Br` (stereo unspecified): the activation is inactive: -19%.

With `CC(C)(C)c1ccc(OP(C)(=O)O)cc1`, the activation was inactive: 3.35%.

For `CP(=O)(Nc1ccc(Cl)cc1)Oc1ccc(F)cc1` (stereo unspecified), the activation is inactive: 5.31%.

Regarding `CN(C)C(=O)c1c([N+](=O)[O-])cc([N+](=O)[O-])cc1[N+](=O)[O-]`, the activation was inactive: -3.17%.

`CP(=O)(Nc1ccc(SC(F)(F)F)cc1)Oc1ccc(F)cc1` (stereo unspecified): the activation is inactive: 2.78%.

`CCOP(C)(=S)SCC(=O)NC(C)(CC)C(=O)O` (stereo unspecified): the activation was inactive: 5.61%.

`CP(=O)(Nc1ccc2c(c1)OCCO2)Oc1ccccc1` (stereo unspecified): the activation is inactive: 13.1%.

For `Cc1ccccc1NP(C)(=O)Nc1ccccc1C`, the activation is inactive: 0.253%.

Consider `O=[N+]([O-])c1cc([N+](=O)[O-])c(C(F)(F)F)c([N+](=O)[O-])c1O`, for which the activation is inactive: -3.86%.

Take `COc1ccc(OP(C)(=O)Nc2cccc(Br)c2)cc1` (stereo unspecified): the activation was inactive: 6.27%.

Regarding `CN(C)CCOC(=O)C(O)(c1ccccc1)C1CCCCC1` (stereo unspecified), the activation was inactive: 8.2%.

Turning to `COc1ccc(NP(C)(=O)Oc2ccccc2OC)cc1` (stereo unspecified), the activation is inactive: -6.64%.

As to `O=[N+]([O-])c1ccc(OP2(=O)COCCO2)cc1` (stereo unspecified), the activation was inactive: 16%.

Regarding `Cc1cc(-c2cccc3ccccc23)c(C)cn1.O=[N+]([O-])c1cc([N+](=O)[O-])c(O)c([N+](=O)[O-])c1`, the activation was inactive: -0.365%.

On to `Cc1c(C(c2ccc3c(c2)OCO3)c2c(C)n(C)n(-c3ccccc3)c2=O)c(=O)n(-c2ccccc2)n1C.O=[N+]([O-])c1cc([N+](=O)[O-])c(O)c([N+](=O)[O-])c1`, for which the activation is inactive: 2.79%.

With `CCOC(=O)c1ccc(NP(C)(=O)Oc2ccc(F)cc2)cc1` (stereo unspecified), the activation was inactive: -3.28%.

Take `COc1ccc(OP(C)(=O)Nc2ccc(SC(F)(F)F)cc2)cc1` (stereo unspecified): the activation was inactive: -8.58%.

On to `Cc1c([N+](=O)[O-])cc([N+](=O)[O-])c(Br)c1[N+](=O)[O-]`, for which the activation was inactive: -6.82%.

As for `CCN(CC)CCCOC(=O)C(O)(c1ccccc1)C1CCCCC1` (stereo unspecified), the activation was inactive: 3.89%.

With `CP(=O)(Nc1ccccc1)Oc1ccc(F)cc1` (stereo unspecified), the activation is inactive: -6.56%.

With `CCCCCOc1ccc(NP(C)(=O)Oc2ccc(Cl)cc2Cl)cc1` (stereo unspecified), the activation is inactive: -15.8%.

For `CP(=O)(Nc1ccccc1F)Oc1ccccc1` (stereo unspecified), the activation is inactive: 6.7%.

With `CC(C)c1ccc(OP(C)(=O)Nc2ccc(SC(F)(F)F)cc2)cc1` (stereo unspecified), the activation was inactive: -26.5%.

Regarding `O=C(OCCN1CCN(CCOCc2ccccc2)CC1)C(O)(c1ccccc1)c1ccccc1`, the activation is inactive: 11.1%.

In the case of `COc1ccccc1OP(C)(=O)Nc1cccc(Br)c1` (stereo unspecified), the activation was inactive: -1.39%.

Take `CCOC(=O)c1ccc(NP(C)(=O)Oc2cc(C)cc(C)c2)cc1` (stereo unspecified): the activation is inactive: -2.34%.

With `Cc1cc(C)cc(OP(C)(=O)Nc2ccc(C)cc2C)c1` (stereo unspecified), the activation was inactive: -1.97%.

In the case of `Cc1ccc(C)c(NP(C)(=O)Oc2ccccc2)c1` (stereo unspecified), the activation was inactive: 4.34%.

As to `Cc1cc(C)cc(OP(C)(=O)Nc2ccccn2)c1` (stereo unspecified), the activation is inactive: 6.65%.

`CP(=O)(Nc1cccc(Br)c1)Oc1ccccc1` (stereo unspecified): the activation is inactive: -0.301%.

Consider `CC1=NCCc2c1[nH]c1ccccc21.O=[N+]([O-])c1cc([N+](=O)[O-])c(O)c([N+](=O)[O-])c1`, for which the activation is inactive: 13.5%.

As to `CC1=C2N=C(C=C3N=C(C(C)=C4[N-][C@@](C)([C@@H]5N=C1[C@](C)(CCC(=O)NC[C@@H](C)OP(=O)([O-])O[C@H]1[C@@H](O)[C@@H](n6cnc7cc(C)c(C)cc76)O[C@@H]1CO)[C@H]5CC(N)=O)[C@@](C)(CC(N)=O)[C@@H]4CCC(N)=O)[C@@](C)(CC(N)=O)[C@@H]3CCC(N)=O)C(C)(C)[C@@H]2CCC(N)=O.[C-]#N.[Co+3]`, the activation was inactive: 11.4%.

In the case of `O=[N+]([O-])c1cc([N+](=O)[O-])c(Nc2nnnn2CCO)c([N+](=O)[O-])c1`, the activation was inactive: 5.22%.
